# Experimental data published in ChEMBL document CHEMBL4602618, “Novel compounds that reverse the disease phenotype in Type 2 Gaucher disease patient-derived cells” (Bioorg Med Chem Lett, 2020).
# Species on record: Homo sapiens
# Assay: Chaperone activity at GCase L444P GBA gene mutant in human fibroblasts derived from Gaucher patient assessed as increase in GPN-induced reduction of calcium release using Fluo-8AM based fluorescence assay relative to control
row,Emax [%],Structure (SMILES)
1,0,CCCC(C(=O)c1ccc(OCCN(C)C)cc1)c1ccccc1 (configuration not stated)
2,0,CCC(C(=O)c1ccc(OCCN(C)C)cc1)c1ccccc1 (configuration not stated)
